Source: patent CN116333122A (SIGE SUZHOU BIOTECHNOLOGY CO LTD, dated 2023)

The chains behind the UniProt entries cited, without tags or fusion partners. A line that says so, or that is headed by a name, gives the form on record, which may keep a tag or linker.
UniProt Q01973, other isoform, or with tags, fused parts or gaps limits assumed: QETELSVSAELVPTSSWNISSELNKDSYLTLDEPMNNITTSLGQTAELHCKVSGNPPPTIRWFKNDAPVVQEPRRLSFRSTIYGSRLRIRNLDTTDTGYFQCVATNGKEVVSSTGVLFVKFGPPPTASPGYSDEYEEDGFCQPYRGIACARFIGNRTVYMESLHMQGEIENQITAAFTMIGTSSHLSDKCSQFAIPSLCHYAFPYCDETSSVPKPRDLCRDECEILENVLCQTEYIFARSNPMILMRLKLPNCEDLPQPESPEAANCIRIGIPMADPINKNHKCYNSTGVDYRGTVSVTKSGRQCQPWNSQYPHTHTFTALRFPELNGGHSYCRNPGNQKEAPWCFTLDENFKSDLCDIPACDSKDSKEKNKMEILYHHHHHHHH

What was measured:
ROR1-HIS [1] = target: T1, ROR1-HIS (Homo sapiens (Human), UniProt Q01973 30-406); assay: BLI, ForteBio Octet
T1 construct: His-tagged ROR1 fusion protein made in 293F cells and purified on a nickel column; also called ROR1-HIS抗原; ROR1 HIS蛋白

ROR1-HIS [2] = target: T1, ROR1-HIS; assay: ELISA, ROR1-HIS coated at 1 μg/ml, 100 μl/well

- Kd (ROR1-HIS [1]): 10.8 nM
- koff (ROR1-HIS [1]): 0.000765 s⁻¹
- kon (ROR1-HIS [1]): 71100 M⁻¹ s⁻¹
- EC50 (ROR1-HIS [2]): 12.6 ng/mL
B1: 6G3重组嵌合抗体 (antibody, V domains shown)
VH: EVKLVESGGGLVKPGGSLKLSCAASGFTFSSYALSWVRQTPEKRLEWVASINRGVTTYYPDSVKGRFTISRDNARNILYLQMSSLRSEDTAMYYCARYDGNYEGMDYWGQGTSVTVSS
VL: DIKMTQSPSSMFASLGERVTITCKASQDINSYLSWFQQKPGKSPKTLIYRANRLIDGVPSRFSGSGSGQDYSLTISSLEYEDMGIYYCLQYDEFPYTFGGGTKLEIK

- Kd (ROR1-HIS [1]): 10.2 nM
- koff (ROR1-HIS [1]): 0.000404 s⁻¹
- kon (ROR1-HIS [1]): 39500 M⁻¹ s⁻¹
- EC50 (ROR1-HIS [2]): 1.33 ng/mL
B2: 10F6重组嵌合抗体 (antibody, V domains shown)
VH: EVKLQESGPSLVKPGASVKISCKTSGYTFTECAMHWVKQSHGKSLEWIGGINPNNGGTTYNQKFKDKATLTVDKSSSTAYMDLRSLTSEDSAVYYCAREAIYYDYAMDYWGQGTSVTVSS
VL: not shown

Each block holds one binder with its values, some of them ahead of it.
